Data as given in US20090318375A1, “Crystalline Azithromycin L-Malate Monohydrate and Pharmaceutical Composition Containing Same” (Hanmi Pharm Co., Ltd, priority 2003, published 2009).

Experiment: Hygroscopicity of acid addition salts of azithromycin after storage
Type: physicochemical
Conditions: after 24 hours storage at 40° C. and 75% relative humidity

Salt form (hygroscopicity): Amorphous, hygroscopic
Substance: Succinic acid
